# What was measured:
# The chains behind the UniProt entries cited, without tags or fusion partners.
# UniProt P04049, whole entry: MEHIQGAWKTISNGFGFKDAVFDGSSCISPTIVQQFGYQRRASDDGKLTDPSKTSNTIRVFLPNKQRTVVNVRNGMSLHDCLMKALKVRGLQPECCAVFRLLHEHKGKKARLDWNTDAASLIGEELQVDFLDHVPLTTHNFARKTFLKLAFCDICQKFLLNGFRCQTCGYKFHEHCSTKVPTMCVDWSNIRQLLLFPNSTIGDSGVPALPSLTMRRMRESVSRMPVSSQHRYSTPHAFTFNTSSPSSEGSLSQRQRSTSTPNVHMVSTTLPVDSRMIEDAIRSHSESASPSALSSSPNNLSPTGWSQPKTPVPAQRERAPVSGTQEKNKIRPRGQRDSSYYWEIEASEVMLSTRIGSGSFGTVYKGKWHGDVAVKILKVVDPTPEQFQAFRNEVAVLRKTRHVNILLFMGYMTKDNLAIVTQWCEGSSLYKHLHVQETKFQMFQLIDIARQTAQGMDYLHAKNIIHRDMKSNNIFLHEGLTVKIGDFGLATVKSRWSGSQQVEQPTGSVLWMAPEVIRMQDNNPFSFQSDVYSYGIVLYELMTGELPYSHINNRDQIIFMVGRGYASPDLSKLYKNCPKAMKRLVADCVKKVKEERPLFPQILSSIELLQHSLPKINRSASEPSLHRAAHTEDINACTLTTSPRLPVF
# UniProt P15056, whole entry V600E: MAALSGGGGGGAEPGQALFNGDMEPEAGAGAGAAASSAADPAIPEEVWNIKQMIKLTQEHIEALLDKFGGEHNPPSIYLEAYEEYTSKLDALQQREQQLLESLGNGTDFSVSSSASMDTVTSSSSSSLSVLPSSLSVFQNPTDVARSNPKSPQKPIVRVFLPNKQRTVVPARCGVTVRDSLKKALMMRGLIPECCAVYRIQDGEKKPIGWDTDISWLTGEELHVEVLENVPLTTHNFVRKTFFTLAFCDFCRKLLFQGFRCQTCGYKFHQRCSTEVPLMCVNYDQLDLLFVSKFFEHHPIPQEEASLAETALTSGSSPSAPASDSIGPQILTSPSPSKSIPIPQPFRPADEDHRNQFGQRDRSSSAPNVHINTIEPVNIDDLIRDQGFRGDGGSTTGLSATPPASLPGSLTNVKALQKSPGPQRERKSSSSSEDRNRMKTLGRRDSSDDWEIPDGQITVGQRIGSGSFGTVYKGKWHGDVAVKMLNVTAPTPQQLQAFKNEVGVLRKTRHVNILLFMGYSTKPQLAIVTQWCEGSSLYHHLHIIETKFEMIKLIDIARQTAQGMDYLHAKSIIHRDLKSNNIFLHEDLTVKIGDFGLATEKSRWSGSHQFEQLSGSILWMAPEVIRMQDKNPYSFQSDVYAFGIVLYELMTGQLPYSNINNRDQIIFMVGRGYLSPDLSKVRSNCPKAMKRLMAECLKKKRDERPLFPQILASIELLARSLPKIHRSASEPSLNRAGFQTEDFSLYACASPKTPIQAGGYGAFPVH
# [1] = biological target: RAF1 (Homo sapiens, UniProt P04049); experiment: Cell-free kinase profiling, RAF1; conditions: for One-dose (1 µM) results against RAF1 (% inhibition): mean of duplicate assays ± SEM; for pIC50 (RAF1): from the IC50 values of Table 1, used for QSAR; for IC50: read-out: IC50 value (nM) against RAF1, 10-dose mode
# [2] = biological target: V600E-B-RAF (Homo sapiens, UniProt P15056, V600E); experiment: Cell-free kinase profiling, V600E-B-RAF; conditions: for One-dose (1 µM) results against V600E-B-RAF (% inhibition): mean of duplicate assays ± SEM; for pIC50 (V600E- B-RAF): from the IC50 values of Table 1, used for QSAR; for IC50: read-out: IC50 value (nM) against V600E-B-RAF, 10-dose mode
SMILES,One-dose (1 µM) results against RAF1 (% inhibition) [1],One-dose (1 µM) results against V600E-B-RAF (% inhibition) [2],pIC50 (V600E- B-RAF) [2],IC50 [2] [nM],pIC50 (RAF1) [1],IC50 [1] [nM]
O=C(NCCNc1nccc(-c2c(-c3ccc(F)cc3)nc3sccn23)n1)c1ccccc1,62.63% ± 0.34%,90.43% ± 0.72%,6.842,144,,
O=C(NCCNc1nccc(-c2c(-c3ccc(F)cc3)nc3sccn23)n1)c1ccccc1O,69.84% ± 0.52%,91.40% ± 0.48%,7.107,78.2,,
Cc1ccc(C(=O)NCCNc2nccc(-c3c(-c4ccc(F)cc4)nc4sccn34)n2)cc1,71.39% ± 1.32%,90.99% ± 0.56%,7.077,83.8,,
Cc1cn(-c2cc(C(=O)NCCNc3nccc(-c4c(-c5ccc(F)cc5)nc5sccn45)n3)cc(C(F)(F)F)c2)cn1,75.89% ± 1.43%,80.25% ± 0.61%,7.083,82.6,,
O=C(NCCNc1nccc(-c2c(-c3cccc(O)c3)nc3sccn23)n1)c1cc(N2CCOCC2)cc(C(F)(F)F)c1,96.60% ± 0.18%,100.66% ± 2.35%,8.131,7.4,7.206,62.2
COc1cccc(NC(=O)NCCNc2nccc(-c3c(-c4ccc(F)cc4)nc4sccn34)n2)c1,63.81% ± 2.51%,73.06 ± 1.72%,6.611,245,,
O=C(NCCNc1nccc(-c2c(-c3cccc(O)c3)nc3sccn23)n1)Nc1cccc(C(F)(F)F)c1,97.28% ± 0.08%,99.54% ± 0.23%,7.735,18.4,7.304,49.7
O=C(NCCNc1nccc(-c2c(-c3cccc(O)c3)nc3sccn23)n1)Nc1cc(C(F)(F)F)cc(C(F)(F)F)c1,67.56% ± 4.79%,87.74% ± 0.38%,6.712,194,,
O=C(NCCNc1nccc(-c2c(-c3ccc(F)cc3)nc3sccn23)n1)c1ccc2c(c1)OCCO2,55.46% ± 1.61%,85.45% ± 0.42%,6.848,142,,
COc1cccc(-c2nc3sccn3c2-c2ccnc(NCCNC(=O)c3ccc(N4CCOCC4)c(C(F)(F)F)c3)n2)c1,32.12% ± 2.26%,79.41% ± 0.56%,6.618,241,,
COc1ccc(C(=O)NCCNc2nccc(-c3c(-c4ccc(F)cc4)nc4sccn34)n2)cc1OC,38.67% ± 5.01%,77.90% ± 0.11%,6.719,191,,
O=C(NCCNc1nccc(-c2c(-c3ccc(F)cc3)nc3sccn23)n1)c1cc(N2CCOCC2)cc(C(F)(F)F)c1,75.69% ± 0.67%,84.82% ± 0.42%,6.921,120,,
COc1cccc(-c2nc3sccn3c2-c2ccnc(NCCNC(=O)c3cccc(C(F)(F)F)c3)n2)c1,56.61% ± 2.15%,83.65% ± 0.47%,6.917,121,,
O=C(NCCNc1nccc(-c2c(-c3cccc(O)c3)nc3sccn23)n1)Nc1ccccc1,97.45% ± 0.10%,97.66% ± 0.16%,7.951,11.2,7.341,45.6
O=C(NCCNc1nccc(-c2c(-c3cccc(O)c3)nc3sccn23)n1)c1cccc(C(F)(F)F)c1,98.71% ± 0.23%,100.24% ± 0.17%,8.469,3.4,7.777,16.7

# Reference: PMC7534351, “Imidazothiazole-based potent inhibitors of V600E-B-RAF kinase with promising anti-melanoma activity: biological and computational studies” (Journal of Enzyme Inhibition and Medicinal Chemistry, 2020)
